Data reported in PMC3897212 (Journal of pharmacokinetics and pharmacodynamics, 2013).

Experiments:
[1] = Time course tissue distribution / pharmacokinetic study in mice; assay type: in vivo, female FVB mice; settings: for AUC(0-t): 60 mg/kg; for CL: mouse plasma, observed
[2] = human plasma, cited from earlier work

CS(=O)(=O)CCNCc1ccc(-c2ccc3ncnc(Nc4ccc(OCc5cccc(F)c5)c(Cl)c4)c3c2)o1 [lapatinib, N-{3-chloro-4-[(3-fluorobenzyl)oxy]phenyl}-6-[5-({[2-(methylsulfonyl)ethyl]amino}methyl)-2-furyl]-4-quinazolinamine]
half-life ([1]; female, FVB, mouse, brain, po, 30 mg/kg): 3.7 h
AUC(0-t) ([1]; female, FVB, mouse, liver, po): 157 µM·h
AUC(0-t) ([1]; female, FVB, mouse, lung, po): 234 µM·h
CL ([1]; 30 mg/kg p.o.): 0.09 L/h
CL ([1]; 60 mg/kg p.o.): 0.09 L/h
CL ([1]; 90 mg/kg p.o.): 0.06 L/h
Observed t1/2 ([2]; 25 mg multiple dose, healthy, fasted, geometric mean): 7.9 ^a (6.4–9.8) h
Observed t1/2 ([2]; 50 mg single dose, healthy, fasted, geometric mean): 6.0 ^a (4.8–7.5) h
Observed t1/2 ([2]; 100 mg single dose, healthy, fasted, geometric mean): 6.3 ^a (5.6–7.0) h
Observed AUC∞ ([2]; 100 mg single dose, healthy, not fasted, geometric mean (range)): 2,459 (2,062–2,933) ^b nM × h
Observed t1/2 ([2]; 100 mg single dose, healthy, not fasted, geometric mean): 9.6 ^a (8.5–10.7) h
Observed AUCτ ([2]; 175 mg multiple dose, cancer, fasted, geometric mean): 9,431 nM × h
Observed t1/2 ([2]; 175 mg single dose, healthy, fasted, geometric mean): 8.2 ^a (6.7–9.9) h
Observed t1/2 ([2]; 250 mg single dose, healthy, fasted, geometric mean): 8.8 ^a (6.6–11.7) h
Observed t1/2 ([2]; 250 mg single dose, healthy, not fasted, geometric mean): 10.2 ^a (9.24–11.3) h
Observed AUCτ ([2]; 375 mg multiple dose, cancer, fasted, geometric mean): 9,878 nM × h
Observed AUCτ ([2]; 675 mg multiple dose, cancer, fasted, geometric mean): 23,578 nM × h
Observed AUCτ ([2]; 900 mg multiple dose, cancer, fasted, geometric mean): 21,857 nM × h
Observed t1/2 ([2]; 900 mg multiple dose, cancer, fasted, median): 23.1 ^b (9.8–38.2) h
Observed t1/2 ([2]; 900 mg single dose, cancer, fasted, median): 12.9 ^b (10.1–18.3) h
Observed AUCτ ([2]; 1,200 mg multiple dose, cancer, fasted, geometric mean): 29,773 nM × h
Observed AUCτ ([2]; 1,250 mg multiple dose, cancer, not fasted, mean (90 % CI)): 62,300 (40,271–96,376) ^a nM × h
Observed AUCτ ([2]; 1,600 mg multiple dose, cancer, fasted, geometric mean): 39,067 ^b nM × h
Observed t1/2 ([2]; 1,600 mg multiple dose, cancer, fasted, median (95 % CI)): 26.2 (12.9–48.3) h
Observed t1/2 ([2]; 1,600 mg single dose, cancer, fasted, median): 13.9 ^b (9.6–18.0) h
Observed AUCτ ([2]; 1,800 mg multiple dose, cancer, fasted, geometric mean): 47,671 ^b nM × h
Observed t1/2 ([2]; 1,800 mg multiple dose, cancer, fasted, median (95 % CI)): 21.8 (18.5–104.5) h
Cmax ([2]; read-out: Observed Cmax, 100 mg single dose, healthy, not fasted, geometric mean (range)): 198 nM

Where two headings read alike, the source gives them in different places. Marks after values point to notes of the source that are not given here.
